Positions count from the first letter of the chain named.
T1: nanopore protein CsgG-Eco-(Y51A/F56Q/R97W/R192D-StrepII (C)), P0AEA2
T1 chain: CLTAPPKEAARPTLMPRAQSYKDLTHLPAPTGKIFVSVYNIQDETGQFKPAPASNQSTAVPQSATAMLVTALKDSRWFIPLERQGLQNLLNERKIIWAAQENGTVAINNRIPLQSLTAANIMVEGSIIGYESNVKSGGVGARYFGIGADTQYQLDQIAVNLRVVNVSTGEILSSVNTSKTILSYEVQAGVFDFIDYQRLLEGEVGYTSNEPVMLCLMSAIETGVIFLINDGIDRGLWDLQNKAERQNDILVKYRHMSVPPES

B1: BCH105-33 (protein)
chain: MKHDLSSATEEQRYIFTDFIKQAQLALKGDSDYEVFAIQGFAGSGKTWLSALIIDELLELGMKVAVTSPTHKAVRVSLNMLKNNGIDTNSPLMYPGTIHHFLNLKLDHGFADDGTADNCTTKAKLVVNKFNEALEYVDVLIVDEASMVSGELYDHALKTLGDRAKIILFIGDSYQLLPVDDEDSSIFLKDDIFHYKLTSVVRQAEDNIIIAKSQELIKAMDQKTYYPSVNDYFVNITEDTEGIKLLKSNVELFELYFSDFKDKMTGAYTNKVVNQFNEYIRYTLYQETKFIADKDELVFQETYTDSKGNIIVSNGEIIEVATAKLTTDIDKFKIWKIVSKKNELGEAVRFNVLDPSSYNEFNDLLDKYCADAKIAKGYDRSKAWKKYFKLKEKYAKVRYNFSSTIHKLQGSTYQNMYFDMRGLDYFYRMNRDNVLRLVYVGITRASDQVFILQD
B2: BCH105-72 (protein)
chain: B1 chain with S199K, E205D

Target: T1, nanopore protein …

| Protein | Speed (nt/s) |
| --- | --- |
| B1 | 358 |
| B2 | 365 |
